Experimental data reported in patent US20090226395A1, “Pharmaceutical compositions of beta-lapachone and beta-lapachone analogs with improved tumor targeting potential” (ArQule, Inc., priority 2004, published 2009).

Assay: Hydrolytic release of β-lapachone or ketal from poly-L-glutamate conjugates, monitored by HPLC
Assay type: physicochemical
Source text: […] The complete release of 2,2-dimethyl-3,4-dihydro-2H-benzo[h]chromene-5,6-dione from the conjugate is achieved within 2-3 days as monitored by HPLC. In addition to the 2,2-dimethyl-3,4-dihydro-2H-benzo[h]chromene-5,6-dione peak, two additional peaks are detected in the HPLC chromatogram. These peaks are believed to be products of the degradation of 2,2-dimethyl-3,4-dihydro-2H-benzo[h]chromene-5,6-dione and an alternate hydrolysis product of conjugate. The concentration of released 2,2-dimethyl-3,4-dihydro-2′-1-benzo[h]chromene-5,6-dione is calculated by comparing the peak areas with the previously obtained calibration curve of 2,2-dimethyl-3,4-dihydro-2H-benzo[h]chromene-5,6-dione standard. […] Loading on the polymer is then calculated as follows: […]
The conjugate is dissolved in water at a concentration of about 0.3 mg/ml and sonicated to facilitate dissolution. […] The concentration of released 2,2-dimethyl-3,4-dihydro-2H-benzo[h]chromene-5,6-dione is determined by HPLC and the quantity calculated by comparing the peak areas with a previously obtained calibration curve of 2,2-dimethyl-3,4-dihydro-2H-benzo[h]chromene-5,6-dione standard, as described above in Example 10. […]

Row | Substance | time for release of the ketal 4′-(hydroxymethyl)-...-dioxolan]-5-one from the conjugate (0.1 M NaOH, about 1 mg/ml) | time for hydrolysis of β-lapachone from the conjugate (ten-fold dilution into 1 M HCl) [min]
1 | (2,2-dimethyl-5-oxo-3,4-dihydro-2H,5H-spiro[benzo[h]chromene-6,2′-[1,3]dioxolan]-4′-yl)methyl γ-poly-L-glutamate sodium | about 20 min | –
2 | N-{2-[(4-{[(6Z)-2,2-dimethyl-5-oxo-3,4-dihydro-2H-benzo[h]-chromen-6(5H)-ylidene]amino}benzoyl)oxy]ethyl}γ-poly-L-glutamate [Sample A] | – | ~4
